Measurements: US7232837B2, “Stereoisomers with high affinity for adrenergic receptors” (McNeil-PPC, Inc., priority 1999, dated 2007)

Biological target: T1, α1 adrenergic receptors
T1 construct: Kd; other: Saturation Analysis, canine lung membranes; Kd; other: Scatchard Analysis, canine lung membranes; Alpha-1 IC50; Alpha-1 Ki; other: 3H-prazocin, canine lung membranes; other: as stated in text; other: tex
Type: binding, canine (mongrel dogs)
Conditions: canine lung membranes; for Ki: 3H-prazocin, read-out: Alpha-1 Ki; for IC50: inhibition of specific 3H-prazocin binding, read-out: Alpha-1 IC50

SMILES	Ki	IC50
CNC[C@@H](O)c1cccc(O)c1 [(+)-Phenylephrine, (+)-phenylephrine]	68 µM	178 µM
CNC[C@H](O)c1cccc(O)c1 [(−)-Phenylephrine, (−)-phenylephrine]	3 µM	7 µM
